For 1 molecule, MIC results are on record in DBAASP.

This test relates to Staphylococcus aureus ATCC 12600. Description: ≥ marks a high value that may be exact or a test limit, other limits are often not marked, values filed in µg/mL are converted to µM.

In turn, `CC(C)C[C@H](NC(=O)[C@H](CC(C)C)NC(=O)[C@H](CC(N)=O)NC(=O)[C@H](CCC(=O)O)NC(=O)[C@H](CC(N)=O)NC(=O)[C@H](CC(C)C)NC(=O)[C@@H](N)C(C)C)C(=O)N[C@@H](CCCN=C(N)N)C(=O)O` [VLNENLLR] came in with an MIC not below 128 µM.

For orientation: MIC means the lowest concentration that inhibits growth of the organism. Low readings indicate greater potency, high ones weaker potency.
